Experiments:
[1] = biological target: RORγ ligand binding domain (LBD) (Homo sapiens, UniProt P51449); test: TR-FRET Activity Assay (ligand sensing, RORγ-LBD / coactivator peptide interaction, LANCE); type: biochemical; conditions: first value of the cell FRET/FF/REN
RORγ = RORγ (UniProt P51449); test: RORγ Gal4 Reporter Gene Assay in 293T cells (firefly and renilla luciferase); type: cell-based, human; conditions: for pIC50 (FF): second value of the cell, firefly luciferase; for pIC50 (REN): third value of the cell, renilla normalised luciferase

The chains behind the UniProt entries cited, without tags or fusion partners. Residues count along the entry.
UniProt P51449, whole entry: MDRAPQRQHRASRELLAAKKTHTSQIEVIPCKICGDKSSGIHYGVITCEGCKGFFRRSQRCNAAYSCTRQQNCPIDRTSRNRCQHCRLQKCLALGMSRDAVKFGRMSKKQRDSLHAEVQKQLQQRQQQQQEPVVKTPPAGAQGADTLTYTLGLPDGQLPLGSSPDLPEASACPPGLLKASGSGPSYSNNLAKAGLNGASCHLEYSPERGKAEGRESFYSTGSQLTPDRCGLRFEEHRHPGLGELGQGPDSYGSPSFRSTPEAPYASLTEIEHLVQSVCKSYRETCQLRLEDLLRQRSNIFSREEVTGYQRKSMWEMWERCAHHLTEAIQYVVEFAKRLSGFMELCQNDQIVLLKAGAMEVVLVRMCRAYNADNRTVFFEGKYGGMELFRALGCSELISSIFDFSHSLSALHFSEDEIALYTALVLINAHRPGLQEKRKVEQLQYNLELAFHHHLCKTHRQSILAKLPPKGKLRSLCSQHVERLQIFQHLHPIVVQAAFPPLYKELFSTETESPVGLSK
UniProt P51449, 269-508 limits assumed: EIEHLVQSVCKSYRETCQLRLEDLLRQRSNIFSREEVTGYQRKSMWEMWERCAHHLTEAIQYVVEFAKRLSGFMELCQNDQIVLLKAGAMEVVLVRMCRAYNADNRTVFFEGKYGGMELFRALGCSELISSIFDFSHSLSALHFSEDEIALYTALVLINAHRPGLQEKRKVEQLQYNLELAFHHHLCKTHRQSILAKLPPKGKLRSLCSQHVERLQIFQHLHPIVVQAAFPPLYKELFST

| Structure (SMILES) | pIC50 (FRET) [1] | pIC50 (FF) (RORγ) | pIC50 (REN) (RORγ) |
| --- | --- | --- | --- |
| Cc1c(C(=O)NC2COC2)cc(-c2cc(OCC(F)(F)F)nc(C(C)(C)C)c2)n1CC1CCCCC1 | 6.7 | 6.3 | 6.4 |
| Cc1c(C(=O)NC2COC2)cc(-c2cc(C(C)(C)C)cc(C(C)(C)O)c2)n1CC1CCCCC1 | 6.1 | 7.0 | 7.1 |
| Cc1cc(-c2cc(C(=O)NC3CCOCC3)c(C)n2CC2CCCCC2)ccc1S(=O)(=O)NC(C)(C)C | 6.5 | 7.1 | 7.2 |
